The results in this text go back to EP0155486A1, “1,3,5-Trisubstituted 1,2,4-triazole derivatives, process for their preparation and medicinal preparations containing them” (priority 1984, dated 1985).

Broadly, the LD50 is the dose expected to kill half of the subjects tested. Low readings indicate greater toxicity, high ones lower toxicity.

Molecules are shown by their SMILES.

Data set [1] has as its system männlichen Ratten der Art Long Evans. It is filed as in vivo. As to conditions: ratio of peroral LD50 to peroral ED50, rats. As to the method: Die Untersuchung der therapeutischen Wirkung der erfindungsgemäßen 1,2,4-Triazolderivate wurde mittels des modifizierten Newbould-Prüfversuches (Brit. J. Pharmacol., 21 [1963], Seite 127) durchgeführt. Dazu wurde in die rechen Hinterfüße von männlichen Ratten der Art Long Evans mit Gewichten von 180 bis 250 g intraplantar […] abgetötetes Mycobacterium tuberculosis in einem Volumen von 0,1 ml injiziert. Nachfolgend wurden die Ratten pro betreffenden Tag mit einer Dosis der zu untersuchenden Verbindung insgesamt 16-mal während 3 Wochen behandelt. Die Änderung des Volumens der Fußschwellung wurde 21 Tage lang täglich mit einem Quecksilber-Plethysmometer vom Lence-Typ bestimmt. Vom 10-ten Tag an wurde das Volumen des linken Hinterfußes bestimmt. Die prozentuale Hemmung wurde im Verhältnis zu diesem Volumen aus der eintretenden Änderung in der Schwellung des rechten Hinterfußes berechnet.

A further data set can be described thus: in vivo. The settings on record: rat, po.

With `CSc1nc(-c2ccc(Cl)cc2)n(-c2ccc(Cl)cc2)n1` [Beispiel 27, 1,5-Bis-[4'-(chlor)-phenyl]-3--[methylthio]-1,2,4-triazol], the “Therapeu-tischer Index LD50-Wert / ED50-Wert” value in data set [1] is recorded as 64,9. In the data set “in vivo”, this compound had an LD50 of 480 mg/kg.
